Reference: ChEMBL document CHEMBL4725359, “Development of Potent PfCLK3 Inhibitors Based on TCMDC-135051 as a New Class of Antimalarials” (J Med Chem, 2020)

Legend:
[1] = tested on: Plasmodium falciparum; experiment: Antimalarial activity against chloroquine-sensitive synchronized ring stage of Plasmodium falciparum 3D7 incubated for 48 to 52 hrs by SYBR green 1 dye based assay; type: functional, organism-based
[2] = tested on: Plasmodium falciparum; experiment: microbe, parasite or virus in culture

## CCN(CC)Cc1ccc(OC)c(-c2cc3c(-c4ccc(C(=O)O)c(C(C)C)c4)ccnc3[nH]2)c1
[1]
  EC50: 200 nM
[2]; 3D7
  EC50: 1810 nM
[2]; 3D7, read-out: pEC50 (converted)
  EC50: 1820 nM
